According to patent US20130079526A1, “Synthesis of Chirally Purified Substituted Benzothiazole Diamines” (priority 2010, published 2013):

Legend:
[1] = Solution hold stability by HPLC; settings: solution in IPA/DI water with 37% HCl, stirred for 24 hours
humans = settings: Boehringer Ingelheim product insert; cited from earlier work

For `CCCN[C@@H]1CCc2nc(N)sc2C1.Cc1ccc(S(=O)(=O)O)cc1` [Pramipexole.p-TSA, (6R)-4,5,6,7-tetrahydro-N6-propyl-2,6-benzothiazole-diamine p-TSA Salt], the “degradation by HPLC” value [1] was “no degradation was observed”.
For `CCCN[C@H]1CCc2nc(N)sc2C1` [pramipexole, (6S)-4,5,6,7-tetrahydro-N6-propyl-2,6-benzothiazole-diamine], the “maximally tolerated dose for humans” value (humans) is listed as 4.5 mg/day.
